ChEMBL document CHEMBL1125407, “Noncataleptogenic, centrally acting dopamine D-2 and serotonin 5-HT2 antagonists within a series of 3-substituted 1-(4-fluorophenyl)-1H-indoles” (J Med Chem, 1992)

Protein sequences, listed by entry. Tags and fused reporters are not part of them. Lines headed by an entry give the natural chain unless they say otherwise; changes in a name come on top.
UniProt P30994: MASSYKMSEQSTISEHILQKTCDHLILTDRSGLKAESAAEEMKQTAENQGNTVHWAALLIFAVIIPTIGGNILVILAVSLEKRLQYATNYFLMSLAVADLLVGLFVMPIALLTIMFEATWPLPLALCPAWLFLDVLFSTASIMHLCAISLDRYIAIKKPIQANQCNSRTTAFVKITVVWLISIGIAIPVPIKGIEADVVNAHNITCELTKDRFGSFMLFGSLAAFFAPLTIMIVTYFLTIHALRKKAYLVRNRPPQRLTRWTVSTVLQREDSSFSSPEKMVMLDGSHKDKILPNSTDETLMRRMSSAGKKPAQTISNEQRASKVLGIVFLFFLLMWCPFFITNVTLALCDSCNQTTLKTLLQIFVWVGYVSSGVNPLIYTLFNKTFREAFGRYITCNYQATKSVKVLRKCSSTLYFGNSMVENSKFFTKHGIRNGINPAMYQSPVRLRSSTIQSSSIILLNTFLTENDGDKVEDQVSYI
UniProt P08909: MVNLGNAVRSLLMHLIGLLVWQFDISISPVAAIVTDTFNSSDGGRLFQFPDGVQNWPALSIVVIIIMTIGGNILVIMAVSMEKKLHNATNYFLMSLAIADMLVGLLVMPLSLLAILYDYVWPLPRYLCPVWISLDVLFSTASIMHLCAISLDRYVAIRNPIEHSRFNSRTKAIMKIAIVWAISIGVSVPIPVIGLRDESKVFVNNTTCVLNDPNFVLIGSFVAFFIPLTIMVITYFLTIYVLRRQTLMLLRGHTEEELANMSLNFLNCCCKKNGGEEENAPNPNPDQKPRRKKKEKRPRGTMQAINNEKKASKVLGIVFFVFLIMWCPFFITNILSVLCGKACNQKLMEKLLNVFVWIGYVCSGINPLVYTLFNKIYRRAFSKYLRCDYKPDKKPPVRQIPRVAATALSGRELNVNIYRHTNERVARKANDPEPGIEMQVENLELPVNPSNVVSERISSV
UniProt P14842: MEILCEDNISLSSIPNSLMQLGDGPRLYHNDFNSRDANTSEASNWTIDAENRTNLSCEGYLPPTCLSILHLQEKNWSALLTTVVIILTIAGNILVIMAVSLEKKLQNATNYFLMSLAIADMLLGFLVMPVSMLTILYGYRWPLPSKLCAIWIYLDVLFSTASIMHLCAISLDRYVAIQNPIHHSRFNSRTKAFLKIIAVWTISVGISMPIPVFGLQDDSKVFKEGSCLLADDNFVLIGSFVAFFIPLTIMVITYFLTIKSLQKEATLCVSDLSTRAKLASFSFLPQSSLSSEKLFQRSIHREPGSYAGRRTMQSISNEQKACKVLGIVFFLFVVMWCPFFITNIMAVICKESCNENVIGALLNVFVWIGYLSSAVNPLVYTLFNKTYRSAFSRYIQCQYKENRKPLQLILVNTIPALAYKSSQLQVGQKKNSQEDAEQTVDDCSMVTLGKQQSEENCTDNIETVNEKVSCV

Biological target: Serotonin 2 (5-HT2) receptor (Rattus norvegicus, UniProt P30994+P08909+P14842)
Assay: Inhibition of [3H]ketanserin binding to rat 5-hydroxytryptamine 2 receptors.
Assay type: protein assay

## O=C1NCCN1CCN1CCC(c2cn(-c3ccc(F)cc3)c3ccc(Cl)cc23)CC1 [SERTINDOLE]
  IC50: 480 pM
